# From PubChem BioAssay AID1508602 (The Scripps Research Institute Molecular Screening Center, 2020)
# By UniProt entry, the sequences of proteins in these tests, tags left out. Where a name states a change or a piece, a line headed by the entry shows the natural chain unless it says otherwise.
# UniProt Q8TDV0: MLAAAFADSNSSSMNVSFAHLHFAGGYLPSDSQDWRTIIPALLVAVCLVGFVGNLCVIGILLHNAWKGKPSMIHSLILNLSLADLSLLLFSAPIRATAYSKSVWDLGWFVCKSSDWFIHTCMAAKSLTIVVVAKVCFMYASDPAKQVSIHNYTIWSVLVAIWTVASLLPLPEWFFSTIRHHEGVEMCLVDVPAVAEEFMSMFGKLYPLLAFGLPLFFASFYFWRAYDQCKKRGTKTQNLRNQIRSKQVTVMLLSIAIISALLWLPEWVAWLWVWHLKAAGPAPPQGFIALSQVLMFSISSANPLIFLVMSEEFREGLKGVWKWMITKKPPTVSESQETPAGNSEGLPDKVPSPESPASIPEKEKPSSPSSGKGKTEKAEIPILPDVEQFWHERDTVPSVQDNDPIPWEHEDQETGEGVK
# This is a selection; strong and weak results do not stand in their true shares. Calls of active or inactive are those of the source. Cut-off read from the data, not from the text of the source: active = activation above about 4.9%; inactive = the rest.
# Molecular target: G-protein coupled receptor 151 (Homo sapiens) (UniProt Q8TDV0)
# Experiment: activates the human receptor GPR151, primary screen, cell-based, PathHunter beta-arrestin, luminescence (AID 1508602);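 note: 0% = median of compound wells and 100% = cells with positive control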
# Settings: PathHunter beta-arrestin GPR151 cells, at 11.2 µM, stronger effect = higher value
row,SMILES,activation
1,O=C(Nc1cccc(F)c1)N(Cc1ccco1)C1CCN(CCc2cccs2)CC1,inactive: 2.44%
2,O=C(COC(=O)C(O)(c1ccccc1)c1ccccc1)NCCN1C(=O)CSC1=O,inactive: -0.768%
3,CC(=O)OC1CN2CCC1C(c1ccccc1)C2 (stereo not given),inactive: -0.756%
4,O=[N+]([O-])c1cc([N+](=O)[O-])c(NCCCO)c([N+](=O)[O-])c1,inactive: 1.9%
5,CCc1cc2c[n+](C3CCCCC3)sc2s1,inactive: -1.49%
6,COc1ccccc1OP(=O)(Nc1ccccn1)Oc1ccccc1OC,inactive: -0.407%
7,COP(=O)(NS(=O)(=O)c1ccc(Cl)cc1)OC,inactive: -0.983%
8,O=C(OC1CN2CCC1CC2)C1COc2ccccc2O1 (stereo not given),inactive: -1.72%
9,O=C(CCNCCCl)c1ccccc1,inactive: 0.227%
10,O=C(N/N=C/c1ccc([N+](=O)[O-])cc1)c1cc([N+](=O)[O-])cc([N+](=O)[O-])c1,inactive: 0.993%
11,Cc1nc(Nc2cccc([N+](=O)[O-])c2)nc(Nc2cccc([N+](=O)[O-])c2)c1[N+](=O)[O-],inactive: 0.505%
12,Cc1cc(NP2(=O)C=C(c3ccccc3)SC(c3ccccc3)=C2)n[nH]1,inactive: -1.45%
13,O=P(Nc1ccccn1)(OCC(F)(F)F)Oc1ccccc1 (stereo not given),inactive: -0.813%
14,CCCCOP1(=S)N=C2c3ccccc3CN2c2cc(N(C)C)ccc21 (stereo not given),inactive: 0.245%
15,CCOP(=O)(Nc1cccc(C(F)(F)F)c1)OCC,inactive: 0.644%
16,Cc1cc(C)nc(NNc2c([N+](=O)[O-])cc([N+](=O)[O-])c(C)c2[N+](=O)[O-])n1,inactive: -0.0701%
17,Cc1ccc(S(=O)(=O)N2C(=O)CSC2C(Cl)(Cl)Cl)cc1 (stereo not given),inactive: 1.28%
18,CC(C)OC(=O)NC(SC#N)C(Cl)(Cl)Cl (stereo not given),inactive: 0.834%
19,N=C(N)SCC(Br)CN1C(=O)c2ccccc2C1=O (stereo not given),inactive: -0.722%
20,O=P(/N=C(/N1CCOCC1)C(Cl)(Cl)Cl)(N1CCOCC1)N1CCOCC1,inactive: 0.0648%
21,O=C(COC(=O)C(O)(c1ccccc1)c1ccccc1)NCc1cccs1,inactive: -0.135%
22,O=C(OC1CN2CCC1CC2)c1cccc(F)c1 (stereo not given),inactive: -0.751%
23,CCc1nc2c(n1)c1c(non1O)c1c2no[n+]1[O-],inactive: 2.39%

row,SMILES,activation
1,CCOC(=O)c1ccccc1OP(=O)(OCC)SCC(C)C (stereo not given),inactive: 0.678%
2,Cc1c([N+](=O)[O-])c([N+](=O)[O-])nn1CC(=O)Nc1cc(O)cc([N+](=O)[O-])c1,inactive: 1.06%
3,Cc1cccc(NC2=NCC(CBr)S2)c1 (stereo not given),inactive: -2.5%
4,Cc1c([N+](=O)[O-])cc(C(=O)Nc2ccc([N+](=O)[O-])cc2)cc1[N+](=O)[O-],inactive: -0.0466%
5,CCOP(=O)(Nc1ccc(Br)cc1)OCC,inactive: -0.225%
6,CCCCOP(=O)(OCCCC)N(CC)CC,inactive: -0.316%
7,O=C(c1ccc2c(c1)OCO2)N(Cc1ccco1)C1CCN(CCc2ccccn2)CC1,inactive: -0.601%
8,O=[N+]([O-])c1cc(/C=N/N=C/c2cc([N+](=O)[O-])cc([N+](=O)[O-])c2O)c(O)c([N+](=O)[O-])c1,inactive: 1.8%
9,C[n+]1c2n(c3ccccc31)CC(Cl)CS2 (stereo not given),inactive: -0.569%
10,CC(C)(C)C(=O)NC(Sc1ccncn1)C(Cl)(Cl)Cl (stereo not given),inactive: 0.163%
11,CN1C(=O)C2C(NC(=NCCN3CCOCC3)N2C)N(C)C1=O (stereo not given),inactive: -1.07%
12,C/C(=N\Nc1ccc([N+](=O)[O-])cc1[N+](=O)[O-])c1cccc([N+](=O)[O-])c1,inactive: 0.147%
13,Cc1c(Nc2ccc([N+](=O)[O-])cc2[N+](=O)[O-])cccc1[N+](=O)[O-],inactive: -1.34%
14,CC(C)NC(=O)N(Cc1ccco1)C1CCN(CCc2ccccn2)CC1,inactive: 0.688%
15,Cc1cc(NP2(=O)C=C(c3ccccc3)OC(c3ccccc3)=C2)n[nH]1,inactive: 0.217%
16,CCOP(=S)(OCC)c1cccc(C(=O)O)c1,inactive: -0.263%
17,O=[N+]([O-])c1cc([N+](=O)[O-])c(SCCNc2ccccc2)c([N+](=O)[O-])c1,inactive: -0.518%
18,Cn1c(SCC(=O)c2ccccc2OC(F)F)nc2ccccc21,inactive: -0.255%
19,ClCCN1CCn2c1nc1ccccc12,inactive: -0.502%
20,O=[N+]([O-])c1cc([N+](=O)[O-])c2nc(-c3ccc([N+](=O)[O-])o3)[nH]c2c1,inactive: -6.66%
21,O=C(COC(=O)C(O)(c1ccccc1)c1ccccc1)NCc1ccc2c(c1)OCO2,inactive: 0.124%
22,CCOP(=O)(NNc1ccccc1)OCC,inactive: -1.4%
